Experimental findings from PubChem BioAssay AID624168 (Sanford-Burnham Center for Chemical Genomics, 2012) are described below.

This is a selection; strong and weak results do not stand in their true shares. Activity calls are given as the source filed them.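 How the source made its calls: active means activation of at least 8% versus controls, or a plate z-score of at least 8; inactive means the rest.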

The experiment in a line: compounds raising alpha-dystroglycan glycosylation – uHTS, Pro5-aDG cells, AlphaScreen, primary screen (AID 624168).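 Further: Pro5 are CHO cells carrying HIG-tagged alpha-DG that lacks glycosylation.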 As to conditions: alpha-DG glycosylation AlphaScreen (IIH6), at 10 µM, stronger effect = higher value, 0% Pro5, 100% B10-LARGE cell signal. Background: Alpha assays give light when donor and acceptor beads are brought close together.
As for `O=C(NCC1(N2CCOCC2)CCCCC1)c1cc(=O)[nH]c2ccccc12`, the activation was inactive: -0.2%.

Turning to `COc1cc(C(=O)NCC2(N3CCCCC3)CCCCC2)ccc1OC(F)F`, the activation was inactive: -0.1%.

Consider `CCCCn1nnnc1C(c1cccc2ccccc12)N1CCC(n2c(=O)[nH]c3ccccc32)CC1` (stereo unspecified), for which the activation is inactive: 0.2%.

`COc1ccc(NC2CCN(C(=O)OC(C)(C)C)CC2)cc1`: the activation was inactive: -0.4%.

Take `CC(C)c1ccc(C(=O)NCC2(N3CCOCC3)CCCCC2)cc1`: the activation was inactive: 0%.

Turning to `CN1CCN(CCOC(=O)C(O)(c2ccccc2)c2ccccc2)CC1`, the activation is inactive: 0.3%.

For `O=C(NCC1(N2CCCCC2)CCCCC1)c1cccc(C(F)(F)F)c1`, the activation is inactive: 0%.

As to `CCN1CCC(Nc2ccc(Cl)cc2)CC1`, the activation is inactive: -0.2%.

Take `N#CC1(Nc2ccccc2)CCN(CCc2ccccc2)CC1`: the activation is inactive: 0.1%.

On to `O=c1[nH]c2ccccc2n1C1CCN(C(c2ccccc2OC(F)(F)F)c2nnnn2C2CCCC2)CC1` (stereo unspecified), for which the activation is inactive: -0.4%.

Consider `CSc1ccc(C(=O)NCC2(N3CCOCC3)CCCCC2)cc1`, for which the activation is inactive: -0.2%.

Turning to `O=C(NCC1(N2CCCCC2)CCCCC1)c1cccc([N+](=O)[O-])c1`, the activation was inactive: -0.4%.

For `CC(C)(C)n1nnnc1C(c1ccccc1OC(F)(F)F)N1CCC(n2c(=O)[nH]c3ccccc32)CC1` (stereo unspecified), the activation was inactive: -0.3%.

With `O=C(NCC1(N2CCCCC2)CCCCC1)c1ccc(OC(F)F)cc1`, the activation is inactive: 0%.

Take `COc1ccc(C(c2nnnn2C2CCCC2)N2CCC(n3c(=O)[nH]c4ccccc43)CC2)cc1` (stereo unspecified): the activation was inactive: -0.2%.

With `Cc1ccc(C(=O)NCC2(N(C)C)CCCCC2)o1`, the activation was inactive: -0.1%.

`CCCOc1ccc(C(=O)NCC2(N(C)C)CCCCC2)cc1OC`: the activation is inactive: -0.1%.

For the molecule `O=C(NCC1(N2CCCCC2)CCCCC1)c1cncc(Br)c1`, the activation was inactive: -0.3%.

On to `CN1CCC(Nc2cccc(F)c2)CC1`, for which the activation is inactive: 0%.

Take `COc1cc(OC)c(C(=O)NCC2(N(C)C)CCCCC2)cc1OC`: the activation is inactive: -0.2%.

Take `CCC(c1nnnn1C(C)(C)C)N1CCC(n2c(=O)[nH]c3ccccc32)CC1` (stereo unspecified): the activation was inactive: -0.2%.

For `O=C(NCC1(N2CCOCC2)CCCCC1)c1cc(F)c(F)cc1Cl`, the activation was inactive: 0.2%.

In the case of `CCCCn1nnnc1C(c1ccnc2ccccc12)N1CCC(n2c(=O)[nH]c3ccccc32)CC1` (stereo unspecified), the activation was inactive: -0.1%.

Take `CC(C)c1ccc(NC2CCN(C(=O)OC(C)(C)C)CC2)cc1`: the activation was inactive: -0.2%.

On to `CCCCn1nnnc1C(c1ccccc1OC(F)(F)F)N1CCC(n2c(=O)[nH]c3ccccc32)CC1` (stereo unspecified), for which the activation was inactive: 0.2%.

Take `COc1ccc(CN(CCCl)CCCl)cc1Cl`: the activation was inactive: -0.4%.

As to `CN(C)c1cccc(C(=O)NCC2(N3CCCCC3)CCCCC2)c1`, the activation was inactive: 0.4%.

As for `O=c1[nH]c2ccccc2n1C1CCN(C(c2cc3ccccc3o2)c2nnnn2C2CCCCC2)CC1` (stereo unspecified), the activation was inactive: 3.1%.

As to `O=C(OC1CN2CCC1CC2)C1c2ccccc2Oc2ccccc21` (stereo unspecified), the activation was inactive: 0.7%.

As to `N#CC1(Nc2ccccc2)CCN(Cc2ccccc2)CC1`, the activation was inactive: 0%.

Consider `O=C(NCC1(N2CCCCC2)CCCCC1)c1ccc(Cl)s1`, for which the activation is inactive: 0.2%.

Turning to `COc1ccc(Cl)cc1C(=O)NCC1(N2CCOCC2)CCCCC1`, the activation is inactive: -0.2%.

As to `CCOC(=O)N1CCC(Nc2ccc(OC)cc2)CC1`, the activation is inactive: 0.6%.

Take `CCCCn1nnnc1C(c1ccc(OC)cc1)N1CCC(n2c(=O)[nH]c3ccccc32)CC1` (stereo unspecified): the activation was inactive: -0.1%.

Consider `O=c1[nH]c2ccccc2n1C1CCN(C(c2ccccc2OC(F)(F)F)c2nnnn2C2CCCCC2)CC1` (stereo unspecified), for which the activation was inactive: -0.4%.

As to `O=C(NCC1(N2CCCCC2)CCCCC1)c1ccc(Cl)nc1`, the activation is inactive: -0.3%.

Turning to `Cc1cc(C)cc(N(C(=O)c2ccccc2)C2CCN(C(=O)OC(C)(C)C)CC2)c1`, the activation was inactive: 0.3%.

As to `O=C(NCC1(N2CCOCC2)CCCCC1)c1cc2ccccc2o1`, the activation is inactive: -0.1%.

On to `CSc1ccccc1C(=O)NCC1(N2CCCCC2)CCCCC1`, for which the activation is inactive: 0.1%.

For the molecule `Cc1cccc(NC2(C#N)CCN(Cc3ccccc3)CC2)c1`, the activation is inactive: -0.1%.

With `COc1ccc(C(=O)NCC2(N3CCCCC3)CCCCC2)cc1`, the activation is inactive: -0.1%.

Regarding `CCC(c1nnnn1C1CCCC1)N1CCC(n2c(=O)[nH]c3ccccc32)CC1` (stereo unspecified), the activation was inactive: 0%.

`COc1ccc(C(=O)NCC2(N3CCCCC3)CCCCC2)c(OC)c1OC`: the activation is inactive: 0.1%.

For the molecule `CC(C)(C)OC(=O)N1CCC(N(C(=O)c2ccccc2)c2ccc(F)cc2)CC1`, the activation was inactive: 0.1%.

With `O=C(NCC1(N2CCCCC2)CCCCC1)c1ccc(=O)[nH]c1`, the activation is inactive: 0%.

Turning to `CCCCn1nnnc1C(c1cccs1)N1CCC(n2c(=O)[nH]c3ccccc32)CC1` (stereo unspecified), the activation was active: 6.6%.

Consider `CCCCn1nnnc1C(CC)N1CCC(n2c(=O)[nH]c3ccccc32)CC1` (stereo unspecified), for which the activation is inactive: -0.2%.

For the molecule `O=C(NCC1(N2CCCCC2)CCCCC1)c1cccs1`, the activation was inactive: 0%.

For the molecule `COc1cc(C(=O)NCC2(N(C)C)CCCCC2)ccc1OC(F)F`, the activation was inactive: -0.1%.

Regarding `CCOC(=O)N1CCC(Nc2cccc(C)c2)CC1`, the activation was inactive: -0.1%.

As to `O=c1[nH]c2ccccc2n1C1CCN(C(c2cccc3ccccc23)c2nnnn2C2CCCC2)CC1` (stereo unspecified), the activation was inactive: -0.2%.

For the molecule `O=c1[nH]c2ccccc2n1C1CCN(C(c2ccccc2)c2nnnn2C2CCCCC2)CC1` (stereo unspecified), the activation was inactive: -0.4%.

For the molecule `O=C(NCC1(N2CCCCC2)CCCCC1)c1ccc(F)cc1`, the activation was inactive: -0.1%.

Turning to `CCCCOc1ccc(C(=O)NCC2(N3CCOCC3)CCCCC2)cc1`, the activation was inactive: 0.6%.

In the case of `O=P1(N(CCCl)CCCl)SCCCS1`, the activation is inactive: 0.3%.

Take `CCCCn1nnnc1C(c1cc2ccccc2o1)N1CCC(n2c(=O)[nH]c3ccccc32)CC1` (stereo unspecified): the activation is inactive: -0.2%.

Consider `CCOC(=O)N1CCC(Nc2ccc(F)cc2)CC1`, for which the activation was inactive: 0.2%.

As for `COc1ccc(NC2CCN(CCc3ccccc3)CC2)c(OC)c1`, the activation was inactive: -0.1%.

For `CC(C)(C)n1nnnc1C(c1ccccc1)N1CCC(n2c(=O)[nH]c3ccccc32)CC1` (stereo unspecified), the activation was inactive: -0.2%.

`O=C1CCN(Cc2ccccc2)CC1`: the activation is inactive: -0.1%.

For the molecule `CCOc1ccc(C)cc1CN(CCCl)CCCl`, the activation is inactive: 0.1%.
